AlphaSeq binding of Ab-95 light chain variants to a spike HR2 peptide

Source: Engelhart et al. 2022 (doi:10.1038/s41597-022-01779-4), MIT Lincoln Laboratory and A-Alpha Bio; data file from the FLAb repository.

Target: peptide PDVDLGDISGINAS, taken from heptad repeat 2 (HR2) of SARS-CoV-2 spike.

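Phage display of a naive human antibody library on the peptide gave the parent. The library (AAYL52) carries one to three amino acid substitutions per variant, with no insertions or deletions. In AlphaSeq, yeast of one mating type display the scFv and yeast of the other type display the target. Binding brings cells together so that they mate, and sequencing counts the barcode pairs among the diploids. The ratio of observed to expected reads was calibrated, replicate by replicate, on BCL2-family standards whose Kd was known from biolayer interferometry. The assay was run in three technical replicates.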

The variants keep the heavy chain, the linker and the frameworks of Ab-95 (scFv order VH, a (GGGGS)3 linker, VL).
VH: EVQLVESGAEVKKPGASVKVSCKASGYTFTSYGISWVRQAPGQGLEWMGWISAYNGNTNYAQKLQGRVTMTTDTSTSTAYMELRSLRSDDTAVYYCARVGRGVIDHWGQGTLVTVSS
VL: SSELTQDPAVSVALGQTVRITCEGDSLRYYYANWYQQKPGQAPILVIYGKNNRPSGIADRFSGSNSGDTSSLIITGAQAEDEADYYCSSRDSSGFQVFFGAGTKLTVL

Variants are written as CDR1, CDR2 and CDR3 of the light chain (limits as in the source). Parent: EGDSLRYYYAN, GKNNRPS, SSRDSSGFQVF. Affinities are written as log10 Kd with Kd in nM; a lower number is a better binder. A pair that was not seen in that replicate is written "n.d."; this usually means weak binding, but a binder can also be missed. Parent in this assay: reference entry 2.31, copy in this library 2.25. Empty control strains, which show no peptide, gave a signal in 28% of pairings with library AAYL52; the median was 3.91 and 95% of these signals were weaker than 2.90. No background was subtracted. The control count says in how many pairings with the empty strains this scFv gave a signal, with their mean in brackets.

| CDR-L1 | CDR-L2 | CDR-L3 | log10 Kd, replicates | control signals |
|---|---|---|---|---|
| PGDSLRYYYAN | GKGNRPS | SSRDTSGFQVF | n.d. / n.d. / n.d. | 2/9 (4.57) |
| EPDYLRYYYAN | GKNNTPS | SSRDSSGFQVF | n.d. / 5.49 / n.d. | 2/9 (3.77) |
| EGDSLRYYYAN | GKNNRPI | SSRDSIGFLVF | 2.24 / 1.83 / 2.49 | 2/9 (3.49) |
| EGDSLRYDYAN | GVNNRPS | SSRQSSGFQVF | n.d. / 3.56 / n.d. | 3/9 (3.98) |
| EGDSLRYYYAN | GKNNRPS | WSRDSKGFQVE | n.d. / n.d. / n.d. | 0/9 |
| EGDSLRYYYAN | GKNERKS | SSRDSSGFQVK | 3.09 / 2.41 / 2.20 | 2/9 (4.10) |
| EGANLRYYYAN | GKNNRPS | SLRDSSGFQVF | n.d. / n.d. / n.d. | 1/9 (4.16) |
| EGDSLPYQYAN | GKNNRPS | SSRDSSGFQKF | 2.61 / 2.70 / 2.08 | 1/9 (3.04) |
| EGDSLRYYYAV | GVNNRPS | SSRDSHGFQVF | n.d. / n.d. / n.d. | 6/9 (3.69) |
| ERDSLRYYYAN | GKLNRPS | SSRDISGFQVF | n.d. / n.d. / 2.77 | 2/9 (3.70) |
| EGDSLCYYFAN | GKNNRPS | SSEDSSGFQVF | 4.10 / n.d. / n.d. | 3/9 (4.80) |
| EGDSLRYYYAC | GENNRPS | SSRDSSGFQVF | n.d. / n.d. / n.d. | 2/9 (3.58) |
| EGNSLRYYYAN | GKNNTWS | SSRDSSGFQVF | 3.23 / 3.72 / 2.66 | 3/9 (4.41) |
| EGDSMRYYYAN | TANNRPS | SSRDSSGFQVF | n.d. / 3.29 / n.d. | 4/9 (4.13) |
| EGDSLRYYYAN | AKNNRPS | SSRDSSIFQVL | n.d. / n.d. / 3.58 | 2/9 (4.04) |
| EGDSLRYYYAF | LKNNRPS | NSRDSSGFQVF | 5.29 / 3.95 / n.d. | 3/9 (3.52) |
| WGDSLRYYYAN | GKANRPS | SSRDSSGFQDF | 3.45 / 4.75 / 2.94 | 2/9 (4.21) |
| EGDSLRYYYAN | GKNNRPL | SHRDSSGEQVF | 3.60 / 2.90 / 3.97 | 2/9 (3.43) |
| FGDSLRYYYYN | GKNNRPS | SSRDSSGFQKF | n.d. / n.d. / n.d. | 1/9 (3.71) |
| EGDSLRYYYAN | GKNNRPS | SSEDSSVFQVF | n.d. / 5.52 / n.d. | 1/9 (2.60) |
| EGDSLRYYLAN | GKNRRPE | SSRDSSGFQVF | 2.49 / 2.71 / 2.55 | 2/9 (3.68) |
| EGDSLRYYYAN | YINNRPS | SSRDSSGNQVF | 3.77 / n.d. / n.d. | 4/9 (3.99) |
| EGDDLRYYYAN | GGNNRPS | SSRDSSGFQRF | 3.12 / 2.81 / 2.92 | 8/9 (4.47) |
| EGDSLRYYYAN | GKNNRPS | SSRSFSGHQVF | 3.75 / 3.34 / 4.22 | 3/9 (3.50) |
| EGDSLKYYYAN | GKNNRPS | GSRDMSGFQVF | 2.47 / 2.12 / 1.98 | 4/9 (3.46) |
| EGDSLRYTYAN | GKNYRPS | SSADSSGFQVF | n.d. / n.d. / n.d. | 1/9 (3.38) |
| EGDSKRYYYFN | GGNNRPS | SSRDSSGFQVF | 2.63 / 2.94 / 2.83 | 0/9 |
| EGDSLRYYYAN | FKNNRPS | SARDSSGLQVF | 3.80 / 2.12 / n.d. | 2/9 (3.54) |
| ELDELRYYYAN | GKNNRPS | SSRDSSGFQVF | 5.24 / 3.37 / 3.15 | 5/9 (4.08) |
| EGDSLRVYYAN | GKNNRSS | SSRDSSGFQHF | n.d. / n.d. / 4.42 | 3/9 (4.00) |
| EWDCLRYYYAN | GKNNRPS | SSRDSSSFQVF | 3.96 / n.d. / n.d. | 4/9 (4.07) |
| EGASMRYYYAV | GKNNRPS | SSRDSSGFQVF | 3.14 / 2.97 / 2.52 | 3/9 (3.87) |
| EGDSLRWYYAN | GKNNNPS | SSRDCSGFQVF | 3.05 / n.d. / n.d. | 1/9 (4.45) |
| EGDSLREYYAN | GKNNRPS | SSLDSMGFQVF | n.d. / 4.75 / n.d. | 2/9 (3.12) |
| EGDSLRYYVAN | GKNNHPS | SSRDSSGFQLF | n.d. / n.d. / n.d. | 1/9 (4.23) |
| CRDSLRYGYAN | GKNNRPS | SSRDSSGFQVF | 2.08 / 2.05 / 1.82 | 2/9 (4.67) |
| EGDSLRYYYAA | GKNTRPS | SSRDSSGFAVF | 2.81 / 2.98 / 3.91 | 5/9 (3.97) |
| EGWSLRYYYAN | GKNNRPN | SSRDSSGFQVI | 5.83 / 3.32 / 4.58 | 1/9 (3.41) |
| EGDSDRYLYAN | GKNNRPS | SSRDSSGFQVF | 3.32 / 2.91 / 3.55 | 3/9 (3.70) |
| EQDSLRYYYAN | GKNNRPS | RSRDSSGFQVF | n.d. / n.d. / n.d. | 0/9 |
| EGDSLKYYYAN | GKNNRFS | SSRDSSKFQVF | 3.44 / 2.98 / 2.91 | 2/9 (4.16) |
| EGCSLRYYYAN | GKNNRPS | YSRISSGFQVF | 4.74 / 4.53 / n.d. | 4/9 (3.78) |

Picked from the list: the 5 lowest averages where every replicate gave a value.

CDR-L1	CDR-L2	CDR-L3	log10 Kd, replicates	control signals
CRDSLRYGYAN	GKNNRPS	SSRDSSGFQVF	2.08 / 2.05 / 1.82	2/9 (4.67)
EGDSLRYYYAN	GKNNRPI	SSRDSIGFLVF	2.24 / 1.83 / 2.49	2/9 (3.49)
EGDSLKYYYAN	GKNNRPS	GSRDMSGFQVF	2.47 / 2.12 / 1.98	4/9 (3.46)
EGDSLPYQYAN	GKNNRPS	SSRDSSGFQKF	2.61 / 2.70 / 2.08	1/9 (3.04)
EGDSLRYYYAN	GKNERKS	SSRDSSGFQVK	3.09 / 2.41 / 2.20	2/9 (4.10)